Assay results as given in paper PMC6272548, “Synthesis and Antiplatelet Activity of Antithrombotic Thiourea Compounds: Biological and Structure-Activity Relationship Studies” (Molecules, 2015).

System: human platelets
Assay: Platelet aggregation of human citrated platelet-rich plasma induced by arachidonic acid (turbidimetric)
Format: cell-based
Experimental: The human blood samples were obtained from adult volunteers, who abstained from the use of drugs or other substances that could interfere with the experiment for at least 15 days prior. […] The platelet rich (PRP) and poor (PPP) plasma were prepared by differential centrifugation and platelet aggregation was monitored using the turbidimetric method described by Born and Cross with an aggregometer 4-Pack® (Helena Laboratories, Beaumount, TX, USA). Different concentrations of the synthetic derivatives and the vehicle (DMSO 1%) were pre-incubated for 2 min before addition of the agonists (500 μM arachidonic acid and 5 μg/mL collagen). The platelet aggregation tests were performed in triplicate and the data were statistically analyzed.

CC(=O)Oc1ccccc1C(=O)O [Aspirin, acetylsalicylic acid, reference compound]
inhibition at 100 µM (Platelet, 100 μM, healthy human platelets, read-out: Inhibition of AA-induced platelet aggregation): 97.5% | IC50 (arachidonic acid-induced (500 μM), human platelet-rich plasma, read-out: IC50, concentration that caused 50% inhibition of platelet aggregation): 30.6 ± 0.4 µM
